Sequences of proteins named here, by UniProt entry; tags and fusion partners are left off.
UniProt P31652, whole entry: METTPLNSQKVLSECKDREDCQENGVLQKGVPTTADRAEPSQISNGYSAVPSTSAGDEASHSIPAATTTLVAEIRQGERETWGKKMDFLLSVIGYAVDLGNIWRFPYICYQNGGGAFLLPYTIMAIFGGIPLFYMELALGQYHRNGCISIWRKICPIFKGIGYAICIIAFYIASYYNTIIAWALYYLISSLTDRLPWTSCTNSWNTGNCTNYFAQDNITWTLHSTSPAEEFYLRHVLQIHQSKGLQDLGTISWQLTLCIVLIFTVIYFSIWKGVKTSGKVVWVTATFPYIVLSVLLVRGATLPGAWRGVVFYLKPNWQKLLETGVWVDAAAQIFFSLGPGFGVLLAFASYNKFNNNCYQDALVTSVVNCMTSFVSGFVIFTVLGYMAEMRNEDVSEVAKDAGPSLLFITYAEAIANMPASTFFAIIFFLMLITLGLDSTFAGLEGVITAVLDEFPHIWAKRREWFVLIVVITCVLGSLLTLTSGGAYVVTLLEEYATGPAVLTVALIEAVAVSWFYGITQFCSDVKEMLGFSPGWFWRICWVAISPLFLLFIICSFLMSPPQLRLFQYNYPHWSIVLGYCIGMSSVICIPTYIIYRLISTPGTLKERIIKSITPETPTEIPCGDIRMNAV

According to ChEMBL document CHEMBL1122707, “Pyrroloisoquinoline antidepressants. Potent, enantioselective inhibition of tetrabenazine-induced ptosis and neuronal uptake of norepinephrine, dopamine, and serotonin” (J Med Chem, 1984):

Target: Sodium-dependent serotonin transporter (Rattus norvegicus, UniProt P31652)
Assay: Inhibition of serotonin (5-HT) uptake into rat brain synaptosomes
Format: subcellular

SMILES | Ki [nM]
Clc1ccc(C2CN3CCC[C@H]3c3ccccc32)cc1Cl (stereo partly drawn) | 1.8
c1ccc(C2CN3CCCCC3c3ccccc32)cc1 (stereo not drawn) | > 500
Br.Nc1ccc([C@@H]2CN3CCC[C@H]3c3ccccc32)cc1 | > 500
Br.Nc1ccc([C@H]2CN3CCC[C@H]3c3ccccc32)cc1 | 44
Cl.FC(F)(F)c1cccc([C@H]2CN3CCC[C@H]3c3ccccc32)c1 | 23
Cl.FC(F)(F)c1cccc([C@@H]2CN3CCC[C@H]3c3ccccc32)c1 | > 100
Br.O=[N+]([O-])c1ccc(C2CN3CCC[C@H]3c3ccccc32)cc1 (stereo partly drawn) | 5
Br.COc1ccc(C2CN3CCC[C@H]3c3ccccc32)cc1 (stereo partly drawn) | 1.7
Br.Oc1ccc(C2CN3CCC[C@H]3c3ccccc32)cc1 (stereo partly drawn) | 3.2
Br.Oc1ccc(C2CN3CCC[C@H]3c3ccccc32)cc1O (stereo partly drawn) | 33.1
Br.COc1ccc(C2CN3CCC[C@H]3c3ccccc32)cc1OC (stereo partly drawn) | 18.1
COc1ccc2c(c1)CN(C)CC2c1ccc(Cl)c(Cl)c1 (stereo not drawn) [DICLOFENSINE] | 18.4
CN1Cc2c(N)cccc2C(c2ccccc2)C1 (stereo not drawn) [NOMIFENSINE] | 874
